Apparent affinities of Ab-91 variants for a coronavirus HR2 peptide

The measurements come from Engelhart et al. 2022 (doi:10.1038/s41597-022-01779-4) through the FLAb antibody collection.

The target is the same throughout: PDVDLGDISGINAS, from the HR2 region of SARS-CoV-2 spike.

The variants keep the light chain, the linker and the frameworks of Ab-91 (scFv order VL, a (GGGGS)3 linker, VH).
VL: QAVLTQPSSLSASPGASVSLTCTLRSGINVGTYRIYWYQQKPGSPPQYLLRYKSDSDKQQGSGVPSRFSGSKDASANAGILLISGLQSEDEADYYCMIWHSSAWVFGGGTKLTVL
VH: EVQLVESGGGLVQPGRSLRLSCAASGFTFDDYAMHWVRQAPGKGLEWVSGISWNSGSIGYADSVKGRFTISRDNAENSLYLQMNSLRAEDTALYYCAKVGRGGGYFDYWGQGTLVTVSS

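The parent was found by panning a naive human phage display library on the peptide. Library AAYL51 holds single substitutions and randomly drawn double and triple substitutions in the CDRs. Affinity was read by AlphaSeq, a pooled yeast mating assay with surface-displayed partners. The frequency of each diploid, read from paired DNA barcodes, reflects how well the two displayed proteins bind. Scores were corrected for input abundance and mapped to Kd with protein pairs of known affinity run in the same pool. The assay was run in three technical replicates.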

Each variant is given by its three heavy chain CDRs, as the data file delimits them; those of the parent are GFTFDDYAMH, GISWNSGSIGYADSVK, VGRGGGYFDY. Values are log10 of the apparent Kd in nM; lower means stronger binding. A mean of the replicates is given; it leaves out those without a signal. "nd" marks a missing value. The strain was present, yet no cells mated with the target were sequenced in any replicate, which points to weak or no binding. Three control strains display no target. For library AAYL51, 21% of the pairings with them gave a signal, with a median of 4.54 and one signal in twenty below 3.26, so weak values seen in few replicates may be background. Also given: how often the same scFv was detected with the empty control strains.

| # | mean log10 Kd (nM) | seen in | control signals | CDR-H1 | CDR-H2 | CDR-H3 |
|---|---|---|---|---|---|---|
| 1 | nd | 0 of 3 | 2 of 9 | GFTFQDYAMH | GISWHSGSIGYADSVK | VGIGGGYFDY |
| 2 | 3.50 | 2 of 3 | 0 of 9 | GFTFDDYAMH | GISWNSESIGYAASVY | VGRGGGYFDY |
| 3 | 3.76 | 1 of 3 | 1 of 9 | GFTFDDVAMH | GISWNSGSIGYADDVK | VGRGGCYFDY |
| 4 | nd | 0 of 3 | 0 of 9 | GFTFDDMAMH | GISWNSGSIGYADSVK | VGTGGGQFDY |
| 5 | 4.98 | 1 of 3 | 4 of 9 | GFTFDDMACH | GISWNSGSIGYADSVK | VGRGGWYFDY |
| 6 | 5.03 | 2 of 3 | 6 of 9 | GFTFDDYAMH | GISWNSGSIYYADSVK | VGRGGGPFDQ |
| 7 | nd | 0 of 3 | 0 of 9 | GFTFDDYAFH | GISWNSGGWGYADSVK | VGRGGGYFDY |
| 8 | 4.85 | 2 of 3 | 2 of 9 | GFTFWDYAMH | GISWMCGSIGYADSVK | VGRGGGYFDY |
| 9 | 4.72 | 3 of 3 | 7 of 9 | GFTFDDYAMH | GYSWNSSSFGYADSVK | VGRGGGYFDY |
| 10 | nd | 0 of 3 | 0 of 9 | GFTFDDYAMH | GISWNSGSIGYADDVK | VGRGGQYFDY |
| 11 | nd | 0 of 3 | 0 of 9 | VFTFDDYACH | GISWNSGSIGYADSVK | VGRGGGYNDY |
| 12 | 0.77 | 3 of 3 | 8 of 9 | GFTFELYAMH | GISWNSGSIGYADSVK | VGRWGGYFDY |
| 13 | nd | 0 of 3 | 3 of 9 | GFTCDDYAMH | GISWNSGSIGYLDSVK | VGRGGGYFHY |
| 14 | 5.43 | 3 of 3 | 4 of 9 | GFTFDDYAMH | IISWNSGSFGYADSVK | VGRQGGYFDY |
| 15 | nd | 0 of 3 | 2 of 9 | GFTFDDFRMH | GISWNSGSISYADSVK | VGRGGGYFDY |
| 16 | 0.78 | 3 of 3 | 6 of 9 | GFHFDDYAMH | GISWNSGSIGYADSVK | VGRGGFYFDY |
| 17 | 4.19 | 1 of 3 | 1 of 9 | GFTFDDYAMH | GIVWNSGSIGYADSTK | VGRGGGYIDY |
| 18 | 4.77 | 1 of 3 | 2 of 9 | GFTFDDHAMH | GISWNMGSIGMADSVK | VGRGGGYFDY |
| 19 | 4.81 | 3 of 3 | 5 of 9 | GFTFDDYAMH | GIRWNSGSIGHAFSVK | VGRGGGYFDY |
| 20 | 3.91 | 3 of 3 | 4 of 9 | GFTFDDYAMH | GISWNSGSIGYATVVK | VGRGGGYFDY |
| 21 | nd | 0 of 3 | 0 of 9 | GFTFDDWAMH | GCSWNSGSIGYADSVK | VERGGGYFDY |
| 22 | 4.99 | 1 of 3 | 5 of 9 | YFTFDDYAPH | GISWNSGEIGYADSVK | VGRGGGYFDY |
| 23 | nd | 0 of 3 | 1 of 9 | GFTFDDYEMH | GISWNSGSIGYADPVK | VGRGGGYFDY |
| 24 | 3.78 | 1 of 3 | 0 of 9 | GFTFDDYAMI | GISWNSGSIGYADIVK | VGRGCGYFDY |
| 25 | 5.54 | 1 of 3 | 5 of 9 | GFTCDDYAME | GISWNSGSIGYADSVK | YGRGGGYFDY |
| 26 | 5.22 | 1 of 3 | 1 of 9 | GFTFDDYVMH | GISWNSGSIGYADSVK | VGRGGGYFDK |
| 27 | nd | 0 of 3 | 2 of 9 | GFTFDMYAMV | GISWNSGSIGYADSVA | VGRGGGYFDY |
| 28 | nd | 0 of 3 | 4 of 9 | GFTFDDYAMH | GIYWNSGSIGQADSVK | VGSGGGYFDY |
| 29 | nd | 0 of 3 | 1 of 9 | GVTMDDYAMH | GISHNSGSIGYADSVK | VGRGGGYFDY |
| 30 | nd | 0 of 3 | 0 of 9 | GFTFHDYAMH | GISWNSGSIGYADSTG | VGRGGGYFDY |
| 31 | 5.96 | 2 of 3 | 4 of 9 | GFEFDDYAMH | GIVWNSGSIGYADSVK | VGRNGGYFDY |
| 32 | 5.38 | 2 of 3 | 4 of 9 | GFTFDDYAMH | GIYWNSGEIGYADSVK | VGRGGEYFDY |
| 33 | nd | 0 of 3 | 2 of 9 | GFTFDDYAMH | CISWNSGSIGYADSVM | VGRGGDYFDY |
| 34 | nd | 0 of 3 | 4 of 9 | GFTFDDYAMH | GISWNSGSIGYADSVK | VGIGFGYFGY |
| 35 | nd | 0 of 3 | 0 of 9 | GFTFDDYAMA | GISWMSGSIGYADSVK | VGRGGGYFDY |
| 36 | nd | 0 of 3 | 0 of 9 | GFTFDSYAMH | GISWNSGSIGYAKSVK | VGRGGGHFDY |
| 37 | 5.75 | 2 of 3 | 3 of 9 | GFTFDDHAMC | DISWNSGSIGYADSVK | VGRGGGYFDY |
| 38 | 4.38 | 3 of 3 | 3 of 9 | GFTFDDYAMH | GISWNSGQIGYADSVE | LGRGGGYFDY |
| 39 | 3.92 | 1 of 3 | 0 of 9 | GFTFDDYAMH | GISWNSGSIGYKYSVK | VGPGGGYFDY |
| 40 | 2.32 | 1 of 3 | 0 of 9 | GFDFDDYAMH | GISINSGSIGYADSVK | VGRGAGYFDY |
| 41 | nd | 0 of 3 | 3 of 9 | GFTFYDYAMH | GISWNSGIIGYADSVK | VGRGGGGFDY |
| 42 | nd | 0 of 3 | 2 of 9 | GFTADDYAMH | GISWNSGSIGYADSVK | VGRGGGPFDY |
| 43 | 4.95 | 2 of 3 | 4 of 9 | GFTFDDYAMH | GISWNSGSIGYARSVK | LGRGGGYFFY |
| 44 | 4.15 | 1 of 3 | 1 of 9 | GFGFDDYAMH | GISWNSGSIGYADSQK | VGRGGGYFAY |
| 45 | nd | 0 of 3 | 1 of 9 | GFTFDDYALH | GISWNSGSIGYADHVK | VGRGGDYFDY |
| 46 | 4.73 | 1 of 3 | 0 of 9 | GFTFDDYATH | GISWNSGSIGNADSVC | VGRGGGYFDY |
| 47 | nd | 0 of 3 | 0 of 9 | GFTFDDYAMH | GISWNSGSIGSADSVK | VGRGGGSDDY |
| 48 | 4.98 | 2 of 3 | 3 of 9 | YFTFDDYAMH | GISWNSGSIGYADSVK | VGYGGGYFDG |
| 49 | 4.38 | 2 of 3 | 2 of 9 | GFTFDDYDMH | GISWNVGSIGYADSVK | VGRGGGYFDY |
| 50 | 5.13 | 2 of 3 | 4 of 9 | GFTFRDYAMH | GISWNSVSIGYADSVK | VGRGGGYFDY |
| 51 | 5.07 | 1 of 3 | 2 of 9 | GFTFPDYNMH | GISWNSGSIGYADSVK | VGRGGGYFDY |
| 52 | nd | 0 of 3 | 1 of 9 | GFTFDRYAMH | IISWNSGSIGYADSVK | VGRMGGYFDY |
| 53 | 4.03 | 1 of 3 | 4 of 9 | GFTFDDYWMH | GISWNSGQIGYARSVK | VGRGGGYFDY |
| 54 | 5.58 | 3 of 3 | 3 of 9 | GFTFDDYAMH | GISWNSGSIDYADSVK | VSRGGDYFDY |
| 55 | 4.84 | 1 of 3 | 2 of 9 | GFTFDDYAMH | GISWNSNSIGCADSVK | FGRGGGYFDY |
| 56 | 1.96 | 3 of 3 | 4 of 9 | GFTFDDYAMH | GISWNSGSAGYMDSVK | VGRGGGAFDY |
| 57 | 2.81 | 2 of 3 | 0 of 9 | GFKFDDYAMH | GISWNSGSIGYACSVK | VGRGGGYFEY |
| 58 | nd | 0 of 3 | 1 of 9 | GFGMDDYAMH | GISKNSGSIGYADSVK | VGRGGGYFDY |
| 59 | nd | 0 of 3 | 0 of 9 | GFTFDDYAMH | GISWVSGSIGYADSVK | VGRGGDYMDY |
| 60 | 4.80 | 2 of 3 | 0 of 9 | GFTFDDYAMH | GISWNSGSIGYACRVK | VGRGGGYFDY |
| 61 | nd | 0 of 3 | 1 of 9 | GFTFDDYAMH | GINWNSGSIGYATSVK | VGRGGGYFDY |
| 62 | 3.76 | 1 of 3 | 1 of 9 | GFTFDDWAMH | VISWNSGSIGYADCVK | VGRGGGYFDY |
| 63 | 4.47 | 1 of 3 | 1 of 9 | GFTFDDYAMH | FISWWSGSIGYADSVK | VGRGGGPFDY |
| 64 | 4.94 | 2 of 3 | 2 of 9 | GFTFDDYAMH | GISWNSGMIGYWDSVK | VGRGGGYFDY |
| 65 | nd | 0 of 3 | 0 of 9 | GFTFDDYAMH | GISWNSGSIGYADSVK | TTRGGGYFDQ |

Picked from the list: the 5 lowest averages where every replicate gave a value.

{"CDR-H1": "GFTFELYAMH", "CDR-H2": "GISWNSGSIGYADSVK", "CDR-H3": "VGRWGGYFDY", "mean log10 Kd (nM)": "0.77", "seen in": "3 of 3", "control signals": "8 of 9"}
{"CDR-H1": "GFHFDDYAMH", "CDR-H2": "GISWNSGSIGYADSVK", "CDR-H3": "VGRGGFYFDY", "mean log10 Kd (nM)": "0.78", "seen in": "3 of 3", "control signals": "6 of 9"}
{"CDR-H1": "GFTFDDYAMH", "CDR-H2": "GISWNSGSAGYMDSVK", "CDR-H3": "VGRGGGAFDY", "mean log10 Kd (nM)": "1.96", "seen in": "3 of 3", "control signals": "4 of 9"}
{"CDR-H1": "GFTFDDYAMH", "CDR-H2": "GISWNSGSIGYATVVK", "CDR-H3": "VGRGGGYFDY", "mean log10 Kd (nM)": "3.91", "seen in": "3 of 3", "control signals": "4 of 9"}
{"CDR-H1": "GFTFDDYAMH", "CDR-H2": "GISWNSGQIGYADSVE", "CDR-H3": "LGRGGGYFDY", "mean log10 Kd (nM)": "4.38", "seen in": "3 of 3", "control signals": "3 of 9"}